# Data reported in ChEMBL document CHEMBL5154927, “Discovery of Novel Bicyclic Phenylselenyl-Containing Hybrids: An Orally Bioavailable, Potential, and Multiacting Class of Estrogen Receptor Modulators against Endocrine-Resistant Breast Cancer” (J Med Chem, 2022).
# Protein sequences, listed by entry. Tags and fused reporters are not part of them.
# UniProt Q92731, whole entry: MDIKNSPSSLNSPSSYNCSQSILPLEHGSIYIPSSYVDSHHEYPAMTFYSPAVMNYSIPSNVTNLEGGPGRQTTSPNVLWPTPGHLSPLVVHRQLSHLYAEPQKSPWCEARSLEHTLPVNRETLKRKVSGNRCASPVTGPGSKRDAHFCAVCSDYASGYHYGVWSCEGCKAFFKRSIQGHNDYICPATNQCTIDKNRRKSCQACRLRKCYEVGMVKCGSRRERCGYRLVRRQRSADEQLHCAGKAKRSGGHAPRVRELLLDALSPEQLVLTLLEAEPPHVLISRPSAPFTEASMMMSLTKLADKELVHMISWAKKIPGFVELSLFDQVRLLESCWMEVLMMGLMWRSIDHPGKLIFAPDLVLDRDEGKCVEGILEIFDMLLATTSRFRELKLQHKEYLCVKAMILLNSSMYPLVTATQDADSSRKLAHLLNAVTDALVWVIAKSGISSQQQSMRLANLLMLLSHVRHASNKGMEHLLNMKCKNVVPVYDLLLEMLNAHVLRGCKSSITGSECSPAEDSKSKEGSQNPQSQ
# What was measured:
# [1] = biological target: Estrogen receptor beta (Homo sapiens) (UniProt Q92731); experiment: Relative binding affinity to human ERbeta measured after 2 hrs by competitive fluorometric binding assay relative to estradiol
# Homo sapiens = species: Homo sapiens; experiment: Selectivity ratio of relative binding affinity for human ERalpha to relative binding affinity for human ERbeta
Structure (SMILES),RBA [1],Ratio (Homo sapiens)
O=S(=O)(Oc1cccc(O)c1)C1CC2OC1C(c1ccc(O)cc1)=C2c1ccc([Se]c2ccccc2)cc1 (centres undefined),3.13%,0.54
O=S(=O)(Oc1ccc(Cl)cc1)C1CC2OC1C(c1ccc([Se]c3ccccc3)cc1)=C2c1ccc(O)cc1 (centres undefined),0.25%,20.8
O=S(=O)(Oc1ccc(C(F)(F)F)cc1)C1CC2OC1C(c1ccc([Se]c3ccccc3)cc1)=C2c1ccc(O)cc1 (centres undefined),0.63%,0.11
O=S(=O)(Oc1cccc(Br)c1)C1CC2OC1C(c1ccc([Se]c3ccccc3)cc1)=C2c1ccc(O)cc1 (centres undefined),0.11%,11.4
O=S(=O)(Oc1cccc(C(F)(F)F)c1)C1CC2OC1C(c1ccc([Se]c3ccccc3)cc1)=C2c1ccc(O)cc1 (centres undefined),1.48%,4.32
O=S(=O)(Oc1ccc([Se]c2ccccc2)cc1)C1CC2OC1C(c1ccc(O)cc1)=C2c1ccc(O)cc1 (centres undefined),0.08%,7.25
COc1ccc(OS(=O)(=O)C2CC3OC2C(c2ccc(O)cc2)=C3c2ccc([Se]c3ccccc3)cc2)cc1 (centres undefined),1.95%,0.85
O=S(=O)(Oc1cccc([Se]c2ccccc2)c1)C1CC2OC1C(c1ccc(O)cc1)=C2c1ccc(O)cc1 (centres undefined),1.02%,1.18
COc1ccc(OS(=O)(=O)C2CC3OC2C(c2ccc([Se]c4ccccc4)cc2)=C3c2ccc(O)cc2)cc1 (centres undefined),0.21%,1.29
O=S(=O)(Oc1ccccc1)C1CC2OC1C(c1ccc(O)cc1)=C2c1ccc([Se]c2ccccc2)cc1 (centres undefined),0.61%,1.77
Cc1ccc(OS(=O)(=O)C2CC3OC2C(c2ccc([Se]c4ccccc4)cc2)=C3c2ccc(O)cc2)cc1 (centres undefined),1.44%,3.95
O=S(=O)(Oc1ccc(Cl)cc1)C1CC2OC1C(c1ccc(O)cc1)=C2c1ccc([Se]c2ccccc2)cc1 (centres undefined),1.01%,0.48
O=S(=O)(Oc1cccc2ccccc12)C1CC2OC1C(c1ccc(O)cc1)=C2c1ccc([Se]c2ccccc2)cc1 (centres undefined),0.51%,1.22
O=S(=O)(Oc1ccc(Br)cc1)C1CC2OC1C(c1ccc(O)cc1)=C2c1ccc([Se]c2ccccc2)cc1 (centres undefined),1.44%,0.79
Cc1ccc(OS(=O)(=O)C2CC3OC2C(c2ccc(O)cc2)=C3c2ccc([Se]c3ccccc3)cc2)cc1 (centres undefined),0.51%,1.59
Cc1cccc(OS(=O)(=O)C2CC3OC2C(c2ccc([Se]c4ccccc4)cc2)=C3c2ccc(O)cc2)c1 (centres undefined),0.97%,6.82
O=S(=O)(Oc1ccc(O)cc1)C1CC2OC1C(c1ccc(O)cc1)=C2c1ccc([Se]c2ccccc2)cc1 (centres undefined),0.09%,6.8
O=S(=O)(Oc1cccc(Cl)c1)C1CC2OC1C(c1ccc([Se]c3ccccc3)cc1)=C2c1ccc(O)cc1 (centres undefined),0.2%,6.95
O=S(=O)(Oc1ccc(C(F)(F)F)cc1)C1CC2OC1C(c1ccc(O)cc1)=C2c1ccc([Se]c2ccccc2)cc1 (centres undefined),2.96%,0.77
COc1cccc(OS(=O)(=O)C2CC3OC2C(c2ccc(O)cc2)=C3c2ccc([Se]c3ccccc3)cc2)c1 (centres undefined),0.85%,2.08
O=S(=O)(Oc1ccccc1)C1CC2OC1C(c1ccc(O)cc1)=C2c1ccc(O)cc1 (centres undefined),2.77%,2.74
O=S(=O)(Oc1ccc(Br)cc1)C1CC2OC1C(c1ccc([Se]c3ccccc3)cc1)=C2c1ccc(O)cc1 (centres undefined),0.71%,5.52
